The entries are a selection whose mix differs from that of the whole data set. Some of these compounds have results that are not shown, active ones among them. Activity calls are given as the source filed them.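 How the source made its calls: active means HER2 level under 5% of the carrier-only control; inconclusive means no clear call, values can overlap the other calls; inactive means the rest.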
These compounds were tested against Receptor tyrosine-protein kinase erbB-2 (Homo sapiens) (UniProt P04626) (assay: inhibitors of Her2 protein expression, primary screen, SKBR-3 cells, AlphaScreen, 66K library (AID 645;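 further: 100% = DMSO carrier and 0% = 500 nM PU-H71 HSP90 inhibitor; lower value means stronger loss of Her2 protein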)). Settings: SKBR-3 HER2 protein level, 18-24 h, at 10 µM, active compounds read low.

Protein sequences, listed by entry. Tags and fused reporters are not part of them.
UniProt P04626, whole entry: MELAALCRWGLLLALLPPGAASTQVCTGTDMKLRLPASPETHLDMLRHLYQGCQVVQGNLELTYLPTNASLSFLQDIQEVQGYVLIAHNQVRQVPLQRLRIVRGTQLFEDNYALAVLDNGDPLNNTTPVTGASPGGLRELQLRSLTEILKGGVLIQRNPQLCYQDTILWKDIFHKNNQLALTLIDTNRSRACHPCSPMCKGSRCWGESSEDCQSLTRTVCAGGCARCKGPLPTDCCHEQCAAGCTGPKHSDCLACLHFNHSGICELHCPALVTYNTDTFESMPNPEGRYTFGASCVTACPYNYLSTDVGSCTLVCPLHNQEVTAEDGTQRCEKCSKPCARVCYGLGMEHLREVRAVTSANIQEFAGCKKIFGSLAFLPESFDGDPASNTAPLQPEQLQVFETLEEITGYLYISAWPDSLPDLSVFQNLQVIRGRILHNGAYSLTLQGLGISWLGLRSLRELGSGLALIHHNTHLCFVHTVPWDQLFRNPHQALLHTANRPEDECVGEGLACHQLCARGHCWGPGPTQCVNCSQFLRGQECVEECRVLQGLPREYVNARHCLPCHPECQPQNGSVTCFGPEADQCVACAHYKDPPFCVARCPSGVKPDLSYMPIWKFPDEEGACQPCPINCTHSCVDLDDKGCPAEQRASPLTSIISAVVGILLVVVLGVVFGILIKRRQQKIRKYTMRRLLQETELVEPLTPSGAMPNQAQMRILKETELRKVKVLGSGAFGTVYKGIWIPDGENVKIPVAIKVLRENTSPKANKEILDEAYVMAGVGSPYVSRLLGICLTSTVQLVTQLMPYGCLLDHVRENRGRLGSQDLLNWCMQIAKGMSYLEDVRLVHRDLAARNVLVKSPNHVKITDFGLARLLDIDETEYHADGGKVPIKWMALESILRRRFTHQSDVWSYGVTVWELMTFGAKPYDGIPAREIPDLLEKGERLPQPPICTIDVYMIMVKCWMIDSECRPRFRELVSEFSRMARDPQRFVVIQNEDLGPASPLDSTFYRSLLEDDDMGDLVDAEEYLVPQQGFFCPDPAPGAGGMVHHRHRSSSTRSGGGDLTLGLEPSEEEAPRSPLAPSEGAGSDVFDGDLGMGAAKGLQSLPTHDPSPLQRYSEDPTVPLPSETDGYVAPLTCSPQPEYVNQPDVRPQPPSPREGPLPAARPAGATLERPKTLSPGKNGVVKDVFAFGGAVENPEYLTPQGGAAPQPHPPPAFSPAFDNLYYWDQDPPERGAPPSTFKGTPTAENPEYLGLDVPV

| Structure (SMILES) | HER2 level % of control |
| --- | --- |
| CN(C)c1cccc(C(=O)NCC2(N(C)C)CCCCC2)c1 | active: -21.8% |
| O=C(OC1CN2CCC1CC2)C(CO)(c1ccccc1)c1ccccc1 (configuration not stated) | inactive: 87.4% |

Source: PubChem BioAssay AID645 (SRMLSC, 2007)
